Drawing on ChEMBL document CHEMBL4011649 (J Med Chem, 2017), this text covers Ratio EC50 for one compound.

Chains of the proteins cited; added tags and fusions are not shown. Lines headed by an entry give the natural chain unless they say otherwise; changes in a name come on top.
UniProt P28223, whole entry, looked up: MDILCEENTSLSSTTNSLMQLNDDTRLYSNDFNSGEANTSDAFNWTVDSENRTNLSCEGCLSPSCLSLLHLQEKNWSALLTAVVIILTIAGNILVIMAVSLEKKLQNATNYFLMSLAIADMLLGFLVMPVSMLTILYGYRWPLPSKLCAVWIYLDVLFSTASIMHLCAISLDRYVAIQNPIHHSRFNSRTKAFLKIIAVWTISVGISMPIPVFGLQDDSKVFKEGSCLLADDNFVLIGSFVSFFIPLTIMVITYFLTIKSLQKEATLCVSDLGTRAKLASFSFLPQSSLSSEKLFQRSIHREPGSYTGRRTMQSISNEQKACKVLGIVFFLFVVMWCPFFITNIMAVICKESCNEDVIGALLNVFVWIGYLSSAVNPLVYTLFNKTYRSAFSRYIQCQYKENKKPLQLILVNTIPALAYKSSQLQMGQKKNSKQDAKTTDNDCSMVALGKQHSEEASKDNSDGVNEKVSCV
UniProt P28335: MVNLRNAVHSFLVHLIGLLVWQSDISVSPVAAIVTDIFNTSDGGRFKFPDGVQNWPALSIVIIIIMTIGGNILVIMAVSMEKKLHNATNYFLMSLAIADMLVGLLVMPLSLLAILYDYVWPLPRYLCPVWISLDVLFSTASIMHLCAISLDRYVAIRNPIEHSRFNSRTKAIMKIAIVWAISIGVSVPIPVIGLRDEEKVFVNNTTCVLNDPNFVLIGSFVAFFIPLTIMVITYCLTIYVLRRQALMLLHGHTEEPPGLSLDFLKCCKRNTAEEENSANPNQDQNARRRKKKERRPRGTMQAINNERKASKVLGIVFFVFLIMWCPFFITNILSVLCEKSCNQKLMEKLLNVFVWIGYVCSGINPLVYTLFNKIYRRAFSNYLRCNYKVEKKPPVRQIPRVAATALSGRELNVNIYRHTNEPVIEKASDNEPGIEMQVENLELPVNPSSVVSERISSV

The assay addresses Serotonin 2 receptors; 5-HT2a & 5-HT2c (Homo sapiens) (UniProt P28223+P28335). As to the kind of experiment: Selectivity ratio of EC50 for human 5HT2A receptor to EC50 for human 5HT2C-INI receptor.

For `COc1ccc(F)cc1C1CC1CNCc1ccccc1O.Cl` (racemic), the Ratio EC50 turned out to be 0.25.
